Test results from patent publication US4164571A, “Medicament which antagonizes the action of gastrin and related polypeptides” (Commissariat a l'Energie Atomique, priority 1976, dated 1979).

What was measured:
[1] = target: T1, specific receptors of the gastrin (cyclasic adenylate activity) (Rattus norvegicus, UniProt P30553); test: cyclasic adenylate activity of rat fundus membrane fractions; format: biochemical; details: dose 10^-8 M
T1 construct: plasma membranes were prepared from a male white rat of the Wistar CF strain; from tissue; host or cells: rat (Wistar CF) fundal gastric mucosa, plasma membrane fraction of density 1.12-1.14 g/cm3
T1 sequence (P30553 1-452): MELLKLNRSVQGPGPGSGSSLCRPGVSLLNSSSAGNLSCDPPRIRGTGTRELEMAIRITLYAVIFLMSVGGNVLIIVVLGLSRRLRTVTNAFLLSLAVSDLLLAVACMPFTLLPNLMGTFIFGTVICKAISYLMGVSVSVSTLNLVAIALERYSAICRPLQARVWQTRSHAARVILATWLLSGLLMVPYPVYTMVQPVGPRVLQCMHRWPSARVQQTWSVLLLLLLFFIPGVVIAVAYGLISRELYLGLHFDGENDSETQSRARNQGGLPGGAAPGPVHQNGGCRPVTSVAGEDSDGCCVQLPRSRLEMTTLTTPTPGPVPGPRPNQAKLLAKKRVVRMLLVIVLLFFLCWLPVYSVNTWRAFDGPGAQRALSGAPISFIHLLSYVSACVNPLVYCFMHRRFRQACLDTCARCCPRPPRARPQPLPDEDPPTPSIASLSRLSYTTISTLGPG
Procedure: Initially plasma membranes were prepared from a male white rat of the Wistar CF strain weighing 250±50 g, stabilised beforehand for one month in an animal house by a standard feed of autoclaved biscuits 113 UAR. […] The stomach was removed, opened in accordance with the greater curvature and washed in the following medium containing 0.25 M of saccharose, 30 nM of trihydroxymethylaminomethane - hydrochloric acid buffer at pH 7.4 and a temperature of 0° to 4° C. […]
The microsomal mass was diluted in 50 ml of a medium containing 0.25 M of saccharose and 3 mM of trihydroxymethylaminomethane-hydrochloric acid buffer at pH 7.4 and a temperature of 0° to 4° C., after which it underwent zonal centrifuging in a Spinco 50 L Beckman refrigerated ultracentrifuge with Ti 14 roto in a 7% linear gradient (1.04 g/cm^3) at 60% (1.30 g/cm^3) of saccharose up to isopycnic equilibrium, i.e. 15 h at 20,000 r.p.m. and 4° C. After equilibration the gradient was collected in 25 ml fractions and the densities were determined by refractometry. […]

[2] = target: T2, biological receptor sites of the gastrin (Rattus norvegicus, UniProt P30553); test: fixing of tritiated gastrin I to plasma membranes of the fundus of the rat; format: binding; details: tritiated gastrin I 10^-8 M, gastrin I-NPS 2.10^-8 M
T2 construct: plasma membranes were prepared from a male white rat of the Wistar CF strain; from tissue; host or cells: rat (Wistar CF) fundal gastric mucosa, plasma membrane fraction of density 1.12-1.14 g/cm3
T2 sequence (P30553 1-452): T1 sequence (P30553 1-452)

[3] = test system: mice; details: i.p., logit-log paper
Description: All the dead or surviving animals are autopsied, the stomach and the small intestine are examined for heamorrhages or ulcers.

Substance | stimulation of the cyclasic adenylate activity [1] | reduction of equilibrium plateau of tritiated gastrin I fixed to plasma membranes [2] | LD 50 [3]
orthonitrophenyl sulphenylated gastrin I [gastrin I-NPS] | no stimulation | about 70% | 
Boc-Gly-Trp-(NPS)-Met-Aspe-Phe-NH2 [pentagastrin-NPS] |  |  | higher than 3.2 mg/kg
